scFv variants of Ab-95 (light chain) against a SARS-CoV-2 spike peptide

Antigen: PDVDLGDISGINAS, a 14-residue peptide of the SARS-CoV-2 spike HR2 region.

Each scFv is VH, a (GGGGS)3 linker, VL, as in the parent Ab-95, and differs from it in the CDRs of the light chain only.
VH: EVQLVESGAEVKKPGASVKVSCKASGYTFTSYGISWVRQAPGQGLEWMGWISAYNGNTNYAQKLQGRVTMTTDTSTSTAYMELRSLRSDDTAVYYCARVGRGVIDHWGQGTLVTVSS
VL: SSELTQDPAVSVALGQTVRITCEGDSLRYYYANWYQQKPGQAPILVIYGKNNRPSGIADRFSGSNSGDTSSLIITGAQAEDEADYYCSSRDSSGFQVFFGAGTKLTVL

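The starting antibody came from a phage panning campaign against this peptide. AAYL52 was designed without a model: most single CDR substitutions and a random sample of double and triple ones. The scFvs were displayed on barcoded MATa yeast, the peptide on MATalpha yeast. Pairs that bind mate more often; barcode pairs of the diploids are counted by sequencing. The ratio of observed to expected reads was calibrated, replicate by replicate, on BCL2-family standards whose Kd was known from biolayer interferometry. Mating was done three times.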

Positions count from residue 1 of the parent VL; A32Y puts Y in place of A. Affinities are written as log10 Kd with Kd in nM; a lower number is a better binder. Replicates are averaged; those with no signal do not enter the mean. A pair that was not seen in that replicate is written "nd"; this usually means weak binding, but a binder can also be missed. Background: pairings of library AAYL52 with three empty control strains gave a value in 28% of cases (median 3.91, 5th percentile 2.90). Values in that range, when seen in few replicates, are hard to tell from nonspecific mating. For each scFv, signals with the empty controls are counted beside the result, with their mean in brackets.

| # | changes | log10 Kd (nM) by replicate | mean, log10 nM | signal with controls |
|---|---|---|---|---|
| 1 | A32Y N51R R53V | 3.73 / 4.19 / 3.74 | 3.89 | 5/9 (3.89) |
| 2 | D25I Q96L | 2.43 / 2.78 / 2.64 | 2.61 | 2/9 (4.42) |
| 3 | Y29H A32M R90F | nd / 3.49 / 4.10 | 3.79 | 1/9 (5.06) |
| 4 | S26H K50W S92E | nd / nd / 3.00 | 3.00 | 0/9 |
| 5 | G24Q S26K Y31E | 2.67 / 3.12 / 2.32 | 2.70 | 1/9 (4.99) |
| 6 | Y29S G49F P54A | nd / nd / nd | nd | 2/9 (4.71) |
| 7 | E23W F95I V97I | 3.91 / 2.60 / 2.42 | 2.98 | 4/9 (3.99) |
| 8 | N52W | 2.92 / 2.31 / 2.45 | 2.56 | 3/9 (4.01) |
| 9 | A32N S55K V97I | 3.88 / nd / nd | 3.88 | 6/9 (3.66) |
| 10 | S26I | 2.95 / 2.29 / 2.54 | 2.59 | 2/9 (3.62) |
| 11 | Y30T P54V V97T | 2.13 / 2.21 / 1.72 | 2.02 | 4/9 (4.27) |
| 12 | P54R V97F | 2.31 / 2.56 / 2.66 | 2.51 | 2/9 (2.95) |
| 13 | R90N S93D | 3.99 / 5.11 / nd | 4.55 | 2/9 (4.82) |
| 14 | L27T R28Q F98N | nd / nd / nd | nd | 1/9 (4.07) |
| 15 | Y29L R53L Q96V | 3.24 / nd / nd | 3.24 | 5/9 (3.39) |
| 16 | E23Y A32C G94N | nd / nd / nd | nd | 1/9 (4.39) |
| 17 | A32H N51R S92F | nd / nd / nd | nd | 2/9 (4.37) |
| 18 | D25K G49D N51F | 4.43 / 4.77 / 3.27 | 4.16 | 5/9 (3.91) |
| 19 | K50H R53F R90H | 3.52 / nd / nd | 3.52 | 4/9 (3.91) |
| 20 | D25I A32N N52G | 5.36 / 4.52 / nd | 4.94 | 3/9 (3.97) |
| 21 | Y30H S92W F95N | 1.80 / 1.67 / 1.24 | 1.57 | 4/9 (4.36) |
| 22 | L27D N33C F95Y | nd / 3.49 / 4.19 | 3.84 | 5/9 (4.00) |
| 23 | N52R P54V V97M | 4.05 / 2.95 / 3.80 | 3.60 | 4/9 (4.32) |
| 24 | S89R S92T | nd / nd / nd | nd | 1/9 (3.56) |
| 25 | N33A F95T Q96K | nd / nd / nd | nd | 0/9 |
| 26 | G24M N51A V97L | nd / nd / nd | nd | 2/9 (3.37) |
| 27 | Y29I G94P V97R | 4.02 / nd / nd | 4.02 | 0/9 |
| 28 | G24K Y31L N52S | nd / nd / nd | nd | 2/9 (3.80) |
| 29 | G24C Y29Q K50S | 3.44 / 3.27 / 4.42 | 3.71 | 6/9 (3.87) |
| 30 | D25H Y30L R90N | 3.60 / 3.70 / nd | 3.65 | 3/9 (4.55) |
| 31 | S55D R90N S92N | nd / nd / nd | nd | 0/9 |
| 32 | S89P Q96L F98Q | 4.60 / 3.62 / nd | 4.11 | 4/9 (4.74) |
| 33 | S26G N51D P54N | 2.92 / 3.00 / 3.19 | 3.04 | 1/9 (3.41) |
| 34 | S26I S92T V97S | 5.57 / 5.02 / 3.28 | 4.62 | 3/9 (3.28) |
| 35 | Y30G S88L G94L | 1.55 / 1.65 / 1.77 | 1.66 | 1/9 (2.87) |
| 36 | N51R S92R F98V | nd / nd / nd | nd | 0/9 |
| 37 | Y29N Y30S N33P | nd / nd / nd | nd | 2/9 (3.66) |
| 38 | E23W R28H Y30P | 2.88 / 2.60 / 3.25 | 2.91 | 1/9 (4.30) |
| 39 | R28I G49T D91V | 4.47 / 3.58 / 4.06 | 4.04 | 2/9 (3.55) |
| 40 | R28V R53W | 4.12 / 3.35 / 3.13 | 3.54 | 2/9 (4.31) |
| 41 | S89C R90Y F98W | 3.14 / 2.37 / 2.23 | 2.58 | 1/9 (4.54) |
| 42 | P54C Q96K V97D | nd / 2.59 / nd | 2.59 | 0/9 |
| 43 | N52M S88I | nd / 4.26 / nd | 4.26 | 1/9 (3.23) |
| 44 | Y29P S55R V97T | 3.76 / nd / 2.62 | 3.19 | 3/9 (3.91) |

For reference, 4 entries of the list once more:

| changes | log10 Kd (nM) by replicate | mean, log10 nM | signal with controls |
|---|---|---|---|
| A32H N51R S92F | nd / nd / nd | nd | 2/9 (4.37) |
| Y29H A32M R90F | nd / 3.49 / 4.10 | 3.79 | 1/9 (5.06) |
| S26I S92T V97S | 5.57 / 5.02 / 3.28 | 4.62 | 3/9 (3.28) |
| R28I G49T D91V | 4.47 / 3.58 / 4.06 | 4.04 | 2/9 (3.55) |

In this assay the parent's reference entry averaged 2.31; its copy inside this library read 2.25.

Reference: Engelhart et al. 2022, doi:10.1038/s41597-022-01779-4. File: FLAb, binding data.